Here are results for 1 molecule from patent publication US9956304B2, “Contrast agents, methods for preparing contrast agents, and methods of imaging” (GEORGIA STATE UNIVERSITY RESEARCH FOUNDATION, INC., priority 2012, dated 2018).

Amino acid sequences for entries named in this document (tags omitted). A change or cut given only in a name is not applied to a line headed by its entry.
UniProt P30550: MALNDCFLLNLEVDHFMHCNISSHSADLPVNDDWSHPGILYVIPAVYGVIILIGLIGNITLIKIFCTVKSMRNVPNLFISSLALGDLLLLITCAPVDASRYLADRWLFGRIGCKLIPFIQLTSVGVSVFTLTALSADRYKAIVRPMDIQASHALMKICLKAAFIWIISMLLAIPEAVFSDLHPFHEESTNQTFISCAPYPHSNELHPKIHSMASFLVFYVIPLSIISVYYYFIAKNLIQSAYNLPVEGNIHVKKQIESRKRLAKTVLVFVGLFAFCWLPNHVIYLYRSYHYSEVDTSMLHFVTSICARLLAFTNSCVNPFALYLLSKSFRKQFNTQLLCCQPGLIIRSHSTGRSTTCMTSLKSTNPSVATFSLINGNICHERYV

The data set deals with T1, GRPR (Homo sapiens, UniProt P30550).
T1 construct: H441 has a low expression level of GRPR while PC3 has high expression level of GRPR; endogenous in cells; host or cells: PC3 and H441 cells (cultured, as lysate, or as xenograft tumours in mice)
Kind of data set: MRI, NIR and staining of H441 and PC3 xenografts. Format: in vivo, athymic mice. As for the experimental part: H441 and PC3 cancer cell lines which express different levels of GRPR were injected in left and right flank of athymic mice which grew up as tumor (1 cm) xenograft models. The contrast agent ProCA1B14 (5 μM, 50 μl) was injected into the mice by tail vein injection. MR images were recorded at different time points (pre-scan and 10 min, 30 min, 24 h, and 48 h after injection) to trace the change of contrast enhancement in tumor regions. The contrast enhancement of H441 tumor increased gradually and reached the highest level at the time point 24 h post injection. Then, the signal intensity of H441 began to decrease. While, the contrast enhancement of PC3 tumor increased gradually and reached the highest level at the time point 48 h post injection. There is an interesting phenomenon that the signal intensity of PC3 was lower than that of H441 before 24 h, however, the condition reversed after 24 h. The possible reason is that more and more free ProCA1B14 went through the whole body of mice and targeted to GRPR on PC3 tumor surface because PC3 has higher GRPR expression level than that of H441.
Consistent with MR imaging, we observed a strong NIR light emission from the PC3 tumor and H441 tumor at 48 h post injection of ProCA1B14. […] To probe the distribution of ProCA1B14 in the tumor tissues after MRI scan, we did immunofluorescence staining. The mice with xenografted tumors were sacrificed and representative organs were immersed in flek O.C.T and fixed by liquid nitrogen. All the samples were stored at −80° C. The cryosectioning was performed by cryostas (Biology facility, GSU). The anti-ProCA1 primary antibody reacted with ProCAB14, which binds GRPR and accumulated in the tissues. The goat anti rabbit secondary antibody conjugated with fluo 594 was added to react with the primary antibody. The immunofluorescence intensity signal was coming from the recognition of secondary antibody conjugated with fluorescence dye to anti-ProCA1 primary antibody. Compare the fluorescence intensity, ProCA1B14 binds GRPR on PC3 and H441 tumors and some of them were internalized in the cell.
To detect the location of ProCA1B14 in the examined tumor tissues, we did immunohistochemistry staining. The mice with xenografted tumors were sacrificed and representative organs were immersed in flek O.C.T and fixed by liquid nitrogen. All the samples were stored at −80° C. The cryosectioning was performed by cryostas (Biology facility, GSU). The frozen tissue samples were stained by using the IHC protocol mentioned above. As shown in the FIG. 17, the brown color indicates the staining of ProCA1B14 binding to the GRPR on tumors, while the blue color indicates the hematoxylin background staining. […] The IHC results were consistent with our MRI data and confirmed that our ProCA1B14 can be used as a MRI contrast agent to semi-quantitatively analyze the receptor change in tumors.

B1: ProCA1B14: ProCA1 (CD2) with internally grafted bombesin variant B14 targeting GRPR (protein)
chain: RDSGTVWGALGHGIELNIPNFQMTDDIDEVRWERGSTLVAEFKRKMKPFLKSGGSGGEQRLGNQWAVGHLMGGSGGAFEIDANGDLDIKNLTRDDSGTYNVTVYSTNGTRILNKALDLRILE
modifications: ProCA1 sequence 3
As for B1, under “48 h post injection”, the “NIR intensities of tumors” value is “NIR intensities at H441 tumor site were much less than that of the PC3 tumor”. Also, under “mouse, in vivo”, the “immunofluorescence staining of tumor tissues” value is recorded as “PC3 tumor showed stronger staining than that of H441 tumor” and the “immunohistochemistry staining of tumor tissues” value is on record as “PC3 tumor showed stronger brown color than that of H441 tumor”. Moreover, under “post injection”, the “time of highest contrast enhancement, H441 tumor” value was 24 h and the “time of highest contrast enhancement, PC3 tumor” value is listed as 48 h.
